Measurements as given in patent publication US20100254928A1, “NOVEL COMPOSITION CONTAINING OZONIZED SURFACTANT” (priority 2007, published 2010).

Assay: Temporal change in oxidizing property (iodine titration method)
Format: physicochemical
Details: 1% aqueous solution, 25° C.
Text: After deaerating the obtained aqueous ozonized surfactant solution to remove dissolved ozone gas by helium purging, the oxidizing property of the aqueous ozonized surfactant solution can be determined by the iodine titration method (see Non Patent Literature 1). Whether or not the aqueous ozonized surfactant solution maintains a function as a surfactant can be evaluated by checking whether or not frothing, which is a characteristic of surfactants, occurs when the solution is agitated or vibrated.
Meanwhile, oxygen was supplied from an oxygen cylinder into an ozonizer (ozonizer GR-RB made by Sumitomo Precision Products Co., Ltd.) at an oxygen flow rate of 0.3 L/min to ozonize the oxygen to produce ozone gas. […] After deaerating the aqueous solution that had undergone about 30-minute ozone treatment to remove dissolved ozone gas by helium purging, oxidizing property of the aqueous solution was determined by the iodine titration method. […] Further, a temporal change in the oxidizing property of the aqueous solution was determined by the iodine titration method at 25° C. for 20 days. As a result, the percentage of oxidizing property measured after 20 days to that measured just after preparation was 109%. […]

Ozonized decaglycerin monooleate [Example 6]
percentage of oxidizing property measured after 180 days to that measured just after preparation: 100%
